Laboratory results as given in ChEMBL document CHEMBL5032523, “Discovery of thiazolidin-4-one analogue as selective GSK-3β inhibitor through structure based virtual screening” (Bioorg Med Chem Lett, 2021).

By UniProt entry, the sequences of proteins in these tests, tags left out. Where a name states a change or a piece, a line headed by the entry shows the natural chain unless it says otherwise.
UniProt P49841: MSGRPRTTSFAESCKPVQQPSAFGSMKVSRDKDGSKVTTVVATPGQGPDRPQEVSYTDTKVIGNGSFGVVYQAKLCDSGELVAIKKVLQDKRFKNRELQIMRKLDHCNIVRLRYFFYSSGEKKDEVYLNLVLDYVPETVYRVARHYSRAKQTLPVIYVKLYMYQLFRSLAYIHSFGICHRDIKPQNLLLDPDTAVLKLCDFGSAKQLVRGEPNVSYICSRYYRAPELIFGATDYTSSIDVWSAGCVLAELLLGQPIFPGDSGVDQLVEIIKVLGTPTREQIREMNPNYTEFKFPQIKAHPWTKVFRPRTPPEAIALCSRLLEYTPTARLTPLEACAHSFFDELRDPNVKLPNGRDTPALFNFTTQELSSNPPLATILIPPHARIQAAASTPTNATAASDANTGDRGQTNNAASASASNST

Target: Glycogen synthase kinase-3 beta (Homo sapiens, UniProt P49841)
Assay: Inhibition of GSK3beta (unknown origin)

Compound `O=C1Nc2ccccc2/C1=C1\Nc2ccccc2\C1=N/O` has an IC50 of 55 nM.
